Assays:
Details in all cases: displacement of 0.050 nM [125I]PYY (porcine), 2 h room temperature
[1] = molecular target: T1, NPY5ΔY1IC3 chimeric receptor (Homo sapiens, UniProt Q15761, DEL238-360/INS235IRLKRRNNMMDKMRDNKY/K361S); assay: [125I]PYY competition binding, Sf9 membranes expressing NPY5ΔY1IC3
T1 construct: made in house; host or cells: Sf9 insect cells infected with recombinant baculovirus (pBacPAK9 vector); purified membranes
T1 sequence (Q15761 with tags, fused parts or gaps INS235IRLKRRNNMMDKMRDNKY/DEL238-360/K361S): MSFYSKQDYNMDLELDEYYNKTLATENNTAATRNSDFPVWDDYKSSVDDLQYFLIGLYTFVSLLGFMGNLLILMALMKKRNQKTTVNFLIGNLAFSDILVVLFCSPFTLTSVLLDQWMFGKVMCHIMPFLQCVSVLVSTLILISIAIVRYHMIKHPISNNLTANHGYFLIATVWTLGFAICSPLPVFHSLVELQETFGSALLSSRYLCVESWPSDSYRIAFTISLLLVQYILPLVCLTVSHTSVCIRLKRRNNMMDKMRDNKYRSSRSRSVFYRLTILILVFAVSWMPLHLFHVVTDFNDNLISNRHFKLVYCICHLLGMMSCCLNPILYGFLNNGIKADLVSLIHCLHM

Sequences of proteins named here, by UniProt entry; tags and fusion partners are left off. A change or cut given only in a name is not applied to a line headed by its entry.
UniProt Q15761: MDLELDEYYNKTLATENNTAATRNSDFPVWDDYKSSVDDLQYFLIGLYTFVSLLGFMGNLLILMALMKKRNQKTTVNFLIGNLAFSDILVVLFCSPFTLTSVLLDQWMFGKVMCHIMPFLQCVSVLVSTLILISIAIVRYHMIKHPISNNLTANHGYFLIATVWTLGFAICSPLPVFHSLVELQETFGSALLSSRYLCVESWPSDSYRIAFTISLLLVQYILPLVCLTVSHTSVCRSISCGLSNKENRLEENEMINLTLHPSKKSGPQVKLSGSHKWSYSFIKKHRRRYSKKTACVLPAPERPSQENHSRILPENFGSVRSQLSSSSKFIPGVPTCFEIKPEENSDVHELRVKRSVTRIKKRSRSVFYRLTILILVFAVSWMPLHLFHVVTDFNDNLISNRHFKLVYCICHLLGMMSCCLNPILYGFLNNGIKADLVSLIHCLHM
UniProt P25929: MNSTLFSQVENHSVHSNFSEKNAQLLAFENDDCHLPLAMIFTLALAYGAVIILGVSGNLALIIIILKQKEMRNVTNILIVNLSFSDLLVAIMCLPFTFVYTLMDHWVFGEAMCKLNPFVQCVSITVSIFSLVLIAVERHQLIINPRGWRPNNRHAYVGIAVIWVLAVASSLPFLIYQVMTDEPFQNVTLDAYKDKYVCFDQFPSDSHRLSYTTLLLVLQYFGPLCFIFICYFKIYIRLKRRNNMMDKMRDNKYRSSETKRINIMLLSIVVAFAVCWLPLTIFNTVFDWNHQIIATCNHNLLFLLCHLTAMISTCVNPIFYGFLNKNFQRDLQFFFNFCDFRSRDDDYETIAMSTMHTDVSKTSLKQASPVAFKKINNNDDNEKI

[2] = molecular target: T2, NPY5ΔY1CT chimeric receptor (Homo sapiens, UniProt P25929+Q15761); assay: [125I]PYY competition binding, Sf9 membranes expressing NPY5ΔY1CT
T2 construct: made in house; host or cells: Sf9 insect cells infected with recombinant baculovirus (pBacPAK9 vector); purified membranes

[3] = molecular target: T3, NPY5 receptor (Homo sapiens, UniProt Q15761); assay: [125I]PYY competition binding, Sf9 membranes expressing NPY5
T3 construct: made in house; host or cells: Sf9 insect cells infected with recombinant baculovirus; purified membranes
T3 sequence (Q15761 with tags, fused parts or gaps): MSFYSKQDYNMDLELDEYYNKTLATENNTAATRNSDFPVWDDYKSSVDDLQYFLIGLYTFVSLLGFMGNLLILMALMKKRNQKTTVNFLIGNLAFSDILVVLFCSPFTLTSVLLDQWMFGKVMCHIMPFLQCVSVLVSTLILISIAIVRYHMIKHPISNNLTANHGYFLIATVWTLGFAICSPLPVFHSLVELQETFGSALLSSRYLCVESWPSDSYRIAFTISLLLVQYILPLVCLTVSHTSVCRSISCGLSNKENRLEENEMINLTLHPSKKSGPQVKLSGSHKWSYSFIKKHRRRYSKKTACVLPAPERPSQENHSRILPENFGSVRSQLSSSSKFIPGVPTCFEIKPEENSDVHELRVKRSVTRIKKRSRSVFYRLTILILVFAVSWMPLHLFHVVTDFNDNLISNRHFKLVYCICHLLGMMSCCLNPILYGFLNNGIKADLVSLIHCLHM

Row | Substance | Ki [1] [nM] | Ki [2] [nM] | Ki [3] [nM]
1 | human D-Trp 32 NPY | 2.3 | 15.6 | 8
2 | human NPY 1-36 [HNPY 1-36] | 0.57 | 0.4 | 0.44
3 | human NPY 3-36 [HNPY 3-36] | 1.2 | 1.9 | 2.1
4 | human NPY 13-36 [HNPY 13-36] | 10.3 | 23.4 | 20

From patent publication US20050019869A1, “Chimeric neuropeptide Y receptors” (priority 2000, published 2005)
